Laboratory results: ChEMBL document CHEMBL1149491, “Novel tricyclic azepine derivatives: Biological evaluation of pyrimido[4,5-b]-1,4-benzoxazepines, thiazepines, and diazepines as inhibitors of the epidermal growth factor receptor tyrosine kinase” (Bioorg Med Chem Lett, 2006)

The chains behind the UniProt entries cited, without tags or fusion partners.
UniProt P00533, whole entry: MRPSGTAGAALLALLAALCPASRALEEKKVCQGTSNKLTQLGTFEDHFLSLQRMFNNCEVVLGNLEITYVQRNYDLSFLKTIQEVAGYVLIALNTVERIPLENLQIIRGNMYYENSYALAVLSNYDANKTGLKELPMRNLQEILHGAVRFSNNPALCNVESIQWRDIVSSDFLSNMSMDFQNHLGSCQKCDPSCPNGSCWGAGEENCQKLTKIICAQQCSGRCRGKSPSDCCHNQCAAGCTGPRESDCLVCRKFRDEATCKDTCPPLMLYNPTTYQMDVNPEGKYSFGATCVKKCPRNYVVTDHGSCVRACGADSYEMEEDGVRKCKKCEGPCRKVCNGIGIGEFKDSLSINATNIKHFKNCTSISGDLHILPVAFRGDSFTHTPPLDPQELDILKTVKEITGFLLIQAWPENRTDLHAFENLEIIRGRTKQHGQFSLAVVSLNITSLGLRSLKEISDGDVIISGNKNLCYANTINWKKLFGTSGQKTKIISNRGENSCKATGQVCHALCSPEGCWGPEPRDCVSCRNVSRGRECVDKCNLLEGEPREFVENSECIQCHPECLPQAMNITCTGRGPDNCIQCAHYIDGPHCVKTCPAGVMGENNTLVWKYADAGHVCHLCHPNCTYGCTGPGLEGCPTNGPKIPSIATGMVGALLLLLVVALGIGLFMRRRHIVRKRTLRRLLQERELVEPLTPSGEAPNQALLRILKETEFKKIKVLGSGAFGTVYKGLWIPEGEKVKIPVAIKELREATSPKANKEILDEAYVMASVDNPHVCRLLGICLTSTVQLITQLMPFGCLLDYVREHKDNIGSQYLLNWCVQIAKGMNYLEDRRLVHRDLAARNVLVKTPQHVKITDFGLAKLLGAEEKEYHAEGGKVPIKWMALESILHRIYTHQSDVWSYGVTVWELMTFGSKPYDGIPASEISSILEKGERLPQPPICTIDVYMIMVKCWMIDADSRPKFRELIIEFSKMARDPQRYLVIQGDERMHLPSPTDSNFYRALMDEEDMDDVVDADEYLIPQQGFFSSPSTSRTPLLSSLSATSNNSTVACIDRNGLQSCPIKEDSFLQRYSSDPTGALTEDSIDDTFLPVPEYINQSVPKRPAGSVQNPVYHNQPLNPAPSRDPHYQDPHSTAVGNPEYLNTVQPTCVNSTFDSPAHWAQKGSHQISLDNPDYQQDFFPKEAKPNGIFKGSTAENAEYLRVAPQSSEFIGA

What was measured:
[1] = target: T1, Epidermal growth factor receptor (Homo sapiens, UniProt P00533); experiment: Inhibition of EGFR measured as pGAT-biotin peptide phosphorylation in presence of 2.0 uM ATP by HTRF assay; format: functional
[2] = target: T1, Epidermal growth factor receptor; experiment: Inhibition of EGFR autophosphorylation in DiFi cells by ELISA; format: functional, cell-based

IC50 [1]: 3.4 µM | IC50 [2]: > 100 µM
Structure (SMILES): COc1cc2c(cc1OC)Oc1ncnc(Nc3ccc(F)cc3Cl)c1NC2
